Values of other authors in patent US11925623B2 (priority 2020, dated 2024).
Read-outs that look alike come from different tables or passages of the source.

How the values were obtained:
cyanide toxicity [1] = settings: lethal swine model; ip and iv; cited from earlier work
cyanide toxicity [2] = settings: sublethal murine model; ip and iv; cited from earlier work

O=C(O)C1(O)CSC(O)(C(=O)O)CS1 (centres unmarked) [sulfanegen]
rescue from cyanide toxicity (cyanide toxicity [1]): highly effective
rescue from cyanide toxicity (cyanide toxicity [2]): highly effective
